Results: US6342514B1, “Compositions and methods for treating bone deficit conditions” (ZymoGenetics, Inc., priority 1996, dated 2002)

System: TMC-23 mouse clonal chondrogenic cell line
Assay: Chondrogenic activity: alkaline phosphatase (ALP) activity in TMC-23 cells
Format: cell-based
Settings: compared to vehicle control
Description: Compounds 59-008, 59-0102 and 50-0197 were assayed for effects on the differentiation of cartilage cells, as compared to the action of recombinant human BMP-2. Briefly, a mouse clonal chondrogenic cell line, TMC-23, was isolated and cloned from costal cartilage of transgenic mice containing the BMP-2 gene control region driving SV-40 large T-antigen, generated as described in Ghosh-Choudhury et al Endocrinology 137:331-39, 1996.
For measurement of alkaline phosphatase (ALP) activity, the technique of LF Bonewald et al. J Biol Chem (1992) 267:8943-49, was employed. Briefly, TMC-23 cells were plated in 96 well microtiter plates in DMEM containing 10% FCS at 4×10^3 cells/well. Two days after plating, the cells were confluent and the medium was replaced with fresh medium containing 10% FCS and different concentrations of compounds or recombinant BMP-2. After an additional 2 or 5 days incubation, the plates were washed twice with PBS, and then lysing solution (0.05% Triton X-100) was added (100 μl/well). The cells were lysed by three freeze-thaw cycles of −70° C. (30 min), followed by 37° C. (30 min with shaking). Twenty microliters of cell lysates were assayed with 80 μl of 5 mM p-nitrophenol phosphate in 1.5 M 2-amino-2-methyl-propanol buffer, pH 10.3 (Sigma ALP kit, Sigma Chemical Co., St. Louis, Mo.) for 10 min at 37° C. The reaction was stopped by the addition of 100 μl of 0.5 M NaOH. The spectrophotometric absorbance at 405 nm was compared to that of p-nitrophenol standards to estimate ALP activity in the samples. The protein content of the cell lysates was determined by the Bio-Rad protein assay kit (Bio-Rad, Hercules, Calif.). Specific activity was calculated using these two parameters.

Recombinant BMP2: recombinant human bone morphogenetic protein 2, comparator in the ALP assay
induction of ALP levels (10 ng/ml): ~1.5 fold | induction of ALP levels (50 ng/ml): ~4 fold | induction of ALP levels (100 ng/ml): approximately 10 fold
